Assay results taken from ChEMBL document CHEMBL2057123, “Design and synthesis of novel lactate dehydrogenase A inhibitors by fragment-based lead generation” (J Med Chem, 2012).
Calls of active or inactive are those of the source. The calls are words filed in the database; no cut-off is given here.

How the values were obtained:
[1] = biological target: T1, L-lactate dehydrogenase A chain (Homo sapiens, UniProt P00338); assay: Binding affinity to 6-His-tagged human LDHA (2 to 322 amino acid residue) expressed in Escherichia coli BL21 (DE3) cells by SPR analysis
[2] = biological target: T1, L-lactate dehydrogenase A chain; assay: Binding affinity to 6-His-tagged human LDHA (2 to 322 amino acid residue) expressed in Escherichia coli BL21 (DE3) cells by NMR analysis in presence of NAD+
In short: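 Ligand-observed NMR at 298 K, 600 MHz, in 100 mM HEPES pH 7.5, 2 mM TCEP, 0.02% sodium azide, with 1 mM NAD⁺ present. Binding was detected by WaterLOGSY and T₁ρ-filtered 1D spectra (LDHA 40−48 μM monomer). […] Single experiment.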

Kd [1] | Activity [2] | Structure (SMILES)
0.093 µM | – | Cc1nc2ccc(NC(=O)CCNC(=O)CCCc3ccc(CC(C(=O)O)C(=O)O)cc3)cc2s1
– | Active | O=C(O)c1nsnc1O
